The values below come from patent publication US9371351B2, “Glycomimetics as Pseudomonas aeruginosa lectin inhibitors” (priority 2012, dated 2016).

Protein sequences, listed by entry. Tags and fused reporters are not part of them.
UniProt Q9HYN5, entry or part of it: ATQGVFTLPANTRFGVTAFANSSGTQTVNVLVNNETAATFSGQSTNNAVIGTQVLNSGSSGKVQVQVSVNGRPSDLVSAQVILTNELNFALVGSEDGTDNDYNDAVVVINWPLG

The assay has as its target LecB (Pseudomonas aeruginosa, UniProt Q9HYN5). As to the kind of experiment: Binding thermodynamics to LecB by isothermal calorimetry. To be noted: average of two measurements.

On to `CO[C@H]1O[C@H](CO)[C@@H](O)[C@H](O)[C@@H]1O` [Me-α-D-Man, methyl α-D-mannopyranoside], for which the Ka came out at 15150 M⁻¹.
